# B1: v29452 (H1L3) (antibody, human IgG1, kappa, V domains shown)
# Chains of the proteins cited; added tags and fusions are not shown. Residues count along the entry.
# UniProt P01308, 25-54 limits assumed, chain 1 of 2: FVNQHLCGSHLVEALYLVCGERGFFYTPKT
# UniProt P01308, 90-110 limits assumed, chain 2 of 2: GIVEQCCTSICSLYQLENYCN
# VH: QVQLVQSGAEVKKPGASVKVSCKASGFTFTSYNVHWVRQAPGQGLEWMGAISPGNGDLSYAQKFQGRVTMTRDTSTSTVYMELSSLRSEDTAVYYCARGRTGMGAVDYWGQGTLVTVSS
# VL: DVQMTQSPSSLSASVGDRVTITCRASQDVYSYLNWYQQKPGKAVKLLIYYTSRLQSGVPSRFSGSGSGTDYTLTISSLQPEDIATYYCQQYNIFPWTFGQGTKLEIKR
# Biological target: Insulin (Sigma-Aldrich, 19278) (Homo sapiens (Human)) (UniProt P01308)
# Test: non-specific ELISA, insulin coated, antibody 100 nM
binder,measurement,value
B1,NS-ELISA binding score (signal over buffer well),1.03

# Reference: US20260232827A1, “ANTIBODY-DRUG CONJUGATES TARGETING NAPI2B AND METHODS OF USE” (Zymeworks BC Inc., priority 2023, published 2026)
